From US20160158376A1 (priority 2013, published 2016)

Tests used:
hemolysis = test: Hemolysis assay of the polyconjugate; format: cell-based
[1] = rabbits, i.v. 1 mg/kg
[2] = female rats, i.v., other groups (5, 10, 15 mg/kg), after completing the experiment
[3] = Solubility assay of the polyconjugate; format: physicochemical; conditions: water, room temperature (22˜25° C.), as active drug

Substance: amphotericin B-hydroxyethyl starch polyconjugate [Preparation 22]
- hemolytic concentration (concentration of the polyene macrolide substance at the initiation of hemolysis) (hemolysis): 0.4 mg/mL

Substance: poly-aspartic acid-amphotericin B polyconjugate [Preparation 1]
- duration during which the serum concentration of drug is above 0.5 mg/L [1]: 18.4 h
- time of serum concentration peak ([1]; free drug): 7.2 h
- end of period with serum concentration above 0.5 mg/L ([1]; time after dosing): 19.2 h
- start of period with serum concentration above 0.5 mg/L ([1]; time after dosing): 0.82 h
- recovery of initial body weight [2]: regain the initial body weight
- survival of animals [2]: all alive

Substance: poly-aspartic acid-mepartricin polyconjugate
- solubility (amount of the soluble active drug) [3]: 0.27%

Substance: poly-glucosamine-amphotericin B polyconjugate [Preparation 3]
- duration during which the serum concentration of drug is above 0.5 mg/L [1]: 17.41 h
- AUC relative to the control ([1]; control = Amphotec): 1.77 times
